# Experimental data: patent US6824928B2, “Organic borate compounds and the nonaqueous electrolytes and lithium secondary batteries using the compounds” (Hitachi, Ltd., priority 2000, dated 2004)
# Assays:
# [1] = 1 M in PC; platinum working electrode, lithium counter/reference; sweep 10 mV/sec
# [2] = Electroconductivity in fluorinated solvent B (HFE7100/DMC 80:20); assay type: physicochemical
substance,measurement,setting,value
Lithium Tetrakis (Chlorodifluoroacetate) Borate [LB5],potential from which significant changes in oxidation current are observed (oxidation decomposition potential),[1],6.8 V
same,concentration at which maximum electroconductivity was obtained,solvent A: PC/DMC 1:2,0.8 M
same,maximum electroconductivity,solvent A: PC/DMC 1:2,6.2 mS/cm
same,improvement of electroconductivity by factor,"solvent A, versus lithium bis-salicylate borate (comparative example 1)",up to 14.4
same,concentration at which maximum electroconductivity was obtained,[2]; solvent B: HFE7100/DMC 80:20,0.6 M
same,maximum electroconductivity,[2]; solvent B: HFE7100/DMC 80:20,1.8 mS/cm
same,improvement of electroconductivity,"[2]; solvent B, versus LiN (SO2CF3)2",2.6 times

# Where two headings read alike, the source gives them in different places.
